Values of other authors as cited in patent publication EP0986401B1, “P-SELECTIN TRANSLOCATION TO VASCULAR EPITHELIAL LUMEN BY IONIZING RADIATION” (ARCH DEVELOPMENT CORPORATION, priority 1997, dated 1998).

Molecular target: T1, E-selectin (Homo sapiens, UniProt P16581)
T1 sequence (P16581 22-610): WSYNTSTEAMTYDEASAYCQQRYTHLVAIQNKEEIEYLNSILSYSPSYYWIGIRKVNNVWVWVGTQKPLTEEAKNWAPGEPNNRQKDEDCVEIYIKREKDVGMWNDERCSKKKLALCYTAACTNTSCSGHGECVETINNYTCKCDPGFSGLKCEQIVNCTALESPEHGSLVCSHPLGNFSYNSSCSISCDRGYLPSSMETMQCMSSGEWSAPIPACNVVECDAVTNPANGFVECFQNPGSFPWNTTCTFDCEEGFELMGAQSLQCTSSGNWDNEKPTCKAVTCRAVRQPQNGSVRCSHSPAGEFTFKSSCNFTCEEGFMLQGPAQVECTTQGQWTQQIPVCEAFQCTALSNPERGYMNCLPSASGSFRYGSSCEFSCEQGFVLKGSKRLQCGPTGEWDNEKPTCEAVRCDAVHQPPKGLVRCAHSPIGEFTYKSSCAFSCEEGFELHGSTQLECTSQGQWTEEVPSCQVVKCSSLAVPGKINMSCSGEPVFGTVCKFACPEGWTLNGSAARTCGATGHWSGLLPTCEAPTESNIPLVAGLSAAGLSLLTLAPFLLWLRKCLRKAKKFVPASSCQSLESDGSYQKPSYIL
Details: solution-phase; Nelson et al. (1993); cited from earlier work

In the case of “Neu5Acα2-3Galβ1-4 [Fucα1-3]GlcNAc [sialyl Lewis X]”, the “blocker of E-selectin” value is given as “more potent blocker”.
